Measurements as given in US20230192679A1, “CRYSTALLINE FORMS, PHARMACEUTICAL COMPOSITIONS AND METHODS OF USE THEREOF” (Tango Therapeutics, Inc., priority 2021, published 2023).

How the values were obtained:
[1] = Brain penetration: CSF and plasma after oral administration; settings: non-human primates, oral 10 mg/kg
[2] = tested on: orthotopic U87MG MTAP-null GBM CDX; settings: 120 mpk BID; monitored maximum of 110 days
[3] = tested on: MTAP-deleted CDX and PDX models; settings: 120 mpk BID

Cc1cc(NC(=O)C(=O)N2C[C@@H](C)CC[C@@H]2c2ccc3scnc3c2)cnc1N [PRMT5 inhibitor of formula (I), N-(6-amino-5-methylpyridin-3-yl)-2-((2R,5S)-2-(benzo[d]thiazol-5-yl)-5-methylpiperidin-1-yl)-2-oxoacetamide]
brain penetration [1]: brain-penetrant
median survival benefit relative to vehicle [2]: 53 days
antitumor response (% growth relative to vehicle) [3]: strong, lineage agnostic antitumor response
